Chains of the proteins cited; added tags and fusions are not shown.
UniProt Q03164, whole entry, looked up: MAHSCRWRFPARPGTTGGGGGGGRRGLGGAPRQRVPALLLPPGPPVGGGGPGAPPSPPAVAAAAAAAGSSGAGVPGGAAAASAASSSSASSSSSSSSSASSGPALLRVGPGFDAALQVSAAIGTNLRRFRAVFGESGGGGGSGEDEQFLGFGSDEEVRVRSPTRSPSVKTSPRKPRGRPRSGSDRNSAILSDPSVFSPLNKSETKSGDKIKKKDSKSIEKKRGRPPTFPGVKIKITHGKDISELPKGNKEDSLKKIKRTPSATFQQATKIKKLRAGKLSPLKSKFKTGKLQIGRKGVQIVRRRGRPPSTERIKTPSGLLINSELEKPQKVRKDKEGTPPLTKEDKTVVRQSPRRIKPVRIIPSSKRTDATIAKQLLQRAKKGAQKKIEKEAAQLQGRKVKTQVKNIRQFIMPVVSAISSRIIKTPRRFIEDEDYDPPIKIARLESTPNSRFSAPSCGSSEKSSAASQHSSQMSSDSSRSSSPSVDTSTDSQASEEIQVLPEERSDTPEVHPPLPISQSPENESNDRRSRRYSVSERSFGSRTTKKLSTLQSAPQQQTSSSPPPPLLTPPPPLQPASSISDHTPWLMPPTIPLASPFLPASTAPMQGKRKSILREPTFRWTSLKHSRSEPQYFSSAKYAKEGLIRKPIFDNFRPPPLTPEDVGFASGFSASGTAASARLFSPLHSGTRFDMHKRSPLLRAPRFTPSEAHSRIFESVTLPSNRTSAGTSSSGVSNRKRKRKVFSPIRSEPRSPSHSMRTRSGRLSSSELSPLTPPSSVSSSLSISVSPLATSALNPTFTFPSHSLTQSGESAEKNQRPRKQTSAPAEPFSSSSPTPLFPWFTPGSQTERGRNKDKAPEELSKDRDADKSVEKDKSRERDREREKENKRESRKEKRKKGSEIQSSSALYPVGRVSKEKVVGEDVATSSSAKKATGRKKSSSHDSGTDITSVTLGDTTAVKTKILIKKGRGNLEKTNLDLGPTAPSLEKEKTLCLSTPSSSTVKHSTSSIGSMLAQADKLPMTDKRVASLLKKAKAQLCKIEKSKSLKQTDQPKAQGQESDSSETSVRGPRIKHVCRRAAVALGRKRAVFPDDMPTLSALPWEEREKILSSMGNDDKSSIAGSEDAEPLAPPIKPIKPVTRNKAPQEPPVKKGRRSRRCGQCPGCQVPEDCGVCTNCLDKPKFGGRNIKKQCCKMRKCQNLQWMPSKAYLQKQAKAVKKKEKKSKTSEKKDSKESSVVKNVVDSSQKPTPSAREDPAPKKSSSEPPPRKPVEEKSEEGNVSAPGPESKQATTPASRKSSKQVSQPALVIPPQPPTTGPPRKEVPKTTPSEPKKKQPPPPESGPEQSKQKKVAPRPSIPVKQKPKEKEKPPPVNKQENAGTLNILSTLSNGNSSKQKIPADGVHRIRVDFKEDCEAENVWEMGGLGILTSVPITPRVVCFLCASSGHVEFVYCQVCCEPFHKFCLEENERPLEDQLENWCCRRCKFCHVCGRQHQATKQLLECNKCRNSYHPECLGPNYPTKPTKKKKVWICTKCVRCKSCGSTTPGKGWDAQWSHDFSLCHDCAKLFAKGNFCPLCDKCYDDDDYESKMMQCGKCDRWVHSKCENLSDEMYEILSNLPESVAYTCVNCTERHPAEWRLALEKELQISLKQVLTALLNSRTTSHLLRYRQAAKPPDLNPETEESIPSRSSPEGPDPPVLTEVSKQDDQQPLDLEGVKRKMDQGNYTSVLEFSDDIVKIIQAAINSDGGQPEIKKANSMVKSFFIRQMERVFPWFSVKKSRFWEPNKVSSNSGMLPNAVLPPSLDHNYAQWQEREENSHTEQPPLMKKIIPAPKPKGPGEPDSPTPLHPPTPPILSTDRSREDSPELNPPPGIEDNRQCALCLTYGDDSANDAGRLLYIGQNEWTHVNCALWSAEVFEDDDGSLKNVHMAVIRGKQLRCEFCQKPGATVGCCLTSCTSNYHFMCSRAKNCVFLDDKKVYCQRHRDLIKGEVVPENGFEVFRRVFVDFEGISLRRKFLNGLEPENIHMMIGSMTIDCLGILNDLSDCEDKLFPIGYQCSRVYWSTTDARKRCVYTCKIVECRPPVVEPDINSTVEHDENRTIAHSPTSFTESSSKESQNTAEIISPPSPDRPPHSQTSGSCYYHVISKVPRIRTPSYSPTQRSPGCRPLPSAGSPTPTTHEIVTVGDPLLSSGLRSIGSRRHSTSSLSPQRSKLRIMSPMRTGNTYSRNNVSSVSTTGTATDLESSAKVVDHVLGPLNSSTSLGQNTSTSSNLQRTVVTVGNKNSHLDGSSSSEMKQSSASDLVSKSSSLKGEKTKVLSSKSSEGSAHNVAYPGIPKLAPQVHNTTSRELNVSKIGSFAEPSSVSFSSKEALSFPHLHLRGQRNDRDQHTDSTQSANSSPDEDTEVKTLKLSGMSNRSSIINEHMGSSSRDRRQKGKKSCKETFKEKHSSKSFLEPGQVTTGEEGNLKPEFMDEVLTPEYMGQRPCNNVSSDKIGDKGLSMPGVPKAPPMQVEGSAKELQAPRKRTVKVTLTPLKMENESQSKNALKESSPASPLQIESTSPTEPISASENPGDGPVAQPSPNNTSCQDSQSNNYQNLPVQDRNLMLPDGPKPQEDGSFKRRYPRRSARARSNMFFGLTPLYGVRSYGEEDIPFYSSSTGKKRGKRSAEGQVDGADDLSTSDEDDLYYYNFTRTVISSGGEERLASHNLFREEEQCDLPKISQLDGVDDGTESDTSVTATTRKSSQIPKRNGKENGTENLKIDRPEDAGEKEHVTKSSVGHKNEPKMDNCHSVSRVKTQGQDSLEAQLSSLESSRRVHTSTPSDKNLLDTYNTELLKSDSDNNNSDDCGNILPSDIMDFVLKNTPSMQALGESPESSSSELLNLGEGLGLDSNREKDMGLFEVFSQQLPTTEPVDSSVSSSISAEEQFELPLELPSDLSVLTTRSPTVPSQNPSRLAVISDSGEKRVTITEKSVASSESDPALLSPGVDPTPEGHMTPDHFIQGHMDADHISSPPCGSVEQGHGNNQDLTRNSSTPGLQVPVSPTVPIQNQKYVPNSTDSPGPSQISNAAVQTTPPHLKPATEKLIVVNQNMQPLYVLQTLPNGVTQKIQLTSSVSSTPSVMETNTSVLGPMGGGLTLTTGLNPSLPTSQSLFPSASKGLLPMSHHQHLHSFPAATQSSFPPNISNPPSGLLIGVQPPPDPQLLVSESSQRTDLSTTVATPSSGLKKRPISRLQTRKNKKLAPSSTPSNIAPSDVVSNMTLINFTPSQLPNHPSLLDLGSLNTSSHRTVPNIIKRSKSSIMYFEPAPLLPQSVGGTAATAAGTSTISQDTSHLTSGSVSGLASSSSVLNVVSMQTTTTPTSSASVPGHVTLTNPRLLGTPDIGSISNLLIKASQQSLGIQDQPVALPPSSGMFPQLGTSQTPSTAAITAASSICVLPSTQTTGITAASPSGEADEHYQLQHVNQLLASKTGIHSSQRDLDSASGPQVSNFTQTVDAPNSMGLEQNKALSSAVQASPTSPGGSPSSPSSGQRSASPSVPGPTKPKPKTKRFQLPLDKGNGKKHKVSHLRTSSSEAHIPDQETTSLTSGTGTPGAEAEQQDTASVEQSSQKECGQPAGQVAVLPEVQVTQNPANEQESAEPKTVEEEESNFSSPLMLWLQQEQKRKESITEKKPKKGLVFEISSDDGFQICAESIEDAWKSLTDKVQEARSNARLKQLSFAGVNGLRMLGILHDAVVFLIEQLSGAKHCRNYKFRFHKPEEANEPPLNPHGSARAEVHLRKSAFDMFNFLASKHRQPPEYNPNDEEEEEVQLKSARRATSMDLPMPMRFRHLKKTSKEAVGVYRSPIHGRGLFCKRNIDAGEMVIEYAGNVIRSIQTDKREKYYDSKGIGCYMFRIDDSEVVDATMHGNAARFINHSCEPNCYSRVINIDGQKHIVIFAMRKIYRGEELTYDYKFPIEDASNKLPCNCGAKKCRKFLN

Values joined by “and” are separate entries in the source; they are usually repeats but may differ in a detail not shown here. Identical values can stand only once. Only a part is listed here, and it is no random draw. Active and inactive are the calls of the source. Calls follow the shape of the dose curve; as a rule, active = well fitted inhibition curve with a large enough effect in the polarisation, with a control signal flat (not every such curve was filed as active); inconclusive = small, poorly fitted or top-dose-only effect, or effect the other way, or a change in a side signal; inactive = no such curve, though single readings can be large or run the other way; the % refers to the polarisation.
These molecules were tested against Histone-lysine N-methyltransferase 2A (Homo sapiens) (UniProt Q03164) (assay: qHTS Fluorescence Polarization Assay for Inhibitors of MLL CXXC domain - DNA interaction). Conditions: MLL-CXXC / FITC-HOXA9 DNA fluorescence polarization; at 115 µM (top of the series).
For `O=[As](O)(O)c1cccnc1`, the activity change, negative = inhibition was inactive: -1.04%.
For `COc1cc(C(=O)NCC2(N3CCOCC3)CCCCC2)cc(Cl)c1OC(C)C`, the activity change, negative = inhibition was inactive: -13%.
In the case of `CS(=O)(=O)c1ccc(Cl)c(NC(=O)COC(=O)C(O)(c2ccccc2)c2ccccc2)c1`, the activity change, negative = inhibition is reported as inactive: 8.22%.
In the case of `CN(C(=O)Cc1ccccc1)[C@@H]1CC[C@]2(CCCO2)C[C@H]1N1CCCC1`, the activity change, negative = inhibition is reported as inactive: 5.05% and inactive: 16%.
With `CCOP1(=S)c2c(C)nn(CCC#N)c2N=C(c2ccc(F)cc2)N1C` (centres undefined) the activity change, negative = inhibition was inactive: 5.83%.
With `O=[N+]([O-])c1ccc2c(c1)nnn2O` the activity change, negative = inhibition was inactive: 3.04%.
In the case of `NC(=O)Nc1ccc([As](=O)(O)O)cc1`, the activity change, negative = inhibition is reported as inactive: -0.126%.
In the case of `Nc1ccccc1[As](=O)(O)c1ccccc1`, the activity change, negative = inhibition is reported as inactive: 4.66%.
In the case of `CCOP1(=S)c2c(C)nn(CCC#N)c2N=C(c2ccccc2F)N1C` (centres undefined), the activity change, negative = inhibition is reported as inactive: 1.33%.
`O=P(Nc1nccs1)(Oc1ccccc1)Oc1ccccc1` was tested, and the activity change, negative = inhibition was inactive: 10.2%.
With `O=P(Nc1nccs1)(c1ccccc1)c1nc2ccccc2s1` (centres undefined) the activity change, negative = inhibition was inactive: -11.2%.
In the case of `CC(C)NC(=O)NP(=O)(Oc1ccccc1)Oc1ccccc1`, the activity change, negative = inhibition is reported as inactive: 7.81%.
`CCN(CC)C(=S)SC(NC=O)C(Cl)(Cl)Cl` (centres undefined) was tested, and the activity change, negative = inhibition was inactive: -15.4%.
For `O=[N+]([O-])c1cc([N+](=O)[O-])c(-c2ccn[nH]2)s1`, the activity change, negative = inhibition was inactive: 1.52%.
For `ClCCSc1nnc(-c2cccnc2)o1`, the activity change, negative = inhibition was inactive: 1.19%.
`CC(C)c1ccc(OP(=O)(Nc2ccccn2)Oc2ccccc2F)cc1` (centres undefined) was tested, and the activity change, negative = inhibition was inactive: 10.9%.
For `Cc1ccc(OP(=O)(Nc2ccc([N+](=O)[O-])cn2)Oc2ccc(C)cc2)cc1`, the activity change, negative = inhibition was inactive: 5.87%.
`Cc1ccc2nc3c(c(C)c2c1)CC(C(Cl)Cl)S3` (centres undefined) was tested, and the activity change, negative = inhibition was inactive: 6.13%.
`C[As](=O)(O)c1cccc(C(=O)O)c1` was tested, and the activity change, negative = inhibition was inactive: -2.63%.
In the case of `O=[As](O)(c1ccc(O)cc1)c1ccccc1O`, the activity change, negative = inhibition is reported as inactive: -3.18%.
For `COc1ccc(N/C(=N/P(=O)(N2CCOCC2)N2CCOCC2)N2CCOCC2)cc1`, the activity change, negative = inhibition was inactive: -2.93%.
For `COc1ccc2nc(NP(=O)(c3ccccc3)c3ccccc3)sc2c1`, the activity change, negative = inhibition was inactive: 2.24%.
With `COc1cc(I)ccc1[As](=O)(O)O` the activity change, negative = inhibition was inactive: -14.4%.
For `Cc1c2c(nc3ccccc13)SC(C(Cl)Cl)C2` (centres undefined), the activity change, negative = inhibition was inactive: 8.32%.
For `O=C(OC1CN2CCC1CC2)C12CC3CC(CC(C3)C1)C2` (centres undefined), the activity change, negative = inhibition was inactive: 4.14%.
`Cc1cc(=O)[nH]c(N[N+](=O)[O-])n1` was tested, and the activity change, negative = inhibition was inactive: -4.33%.
For `CCC(C)N(CC(C)C)C(=S)SC(NC(C)=O)C(Cl)(Cl)Cl` (centres undefined), the activity change, negative = inhibition was inactive: 26.6%.
`O=C(OC1CN2CCC1CC2)c1cccc([N+](=O)[O-])c1` (centres undefined) was tested, and the activity change, negative = inhibition was inactive: 1.56%.
`CCOC(=O)c1ccc(NC(=O)C(C)(CCl)SC)cc1` (centres undefined) was tested, and the activity change, negative = inhibition was inactive: 14.3%.
For `O=C(COc1ccccc1)OC1CN2CCC1CC2` (centres undefined), the activity change, negative = inhibition was inactive: -2.62%.
In the case of `O=C(Nc1ccncc1[N+](=O)[O-])c1ccc([N+](=O)[O-])cc1[N+](=O)[O-]`, the activity change, negative = inhibition is reported as inactive: 2.15%.
In the case of `COP1(=S)c2c(C)nn(CCC#N)c2N=C(c2ccc(F)cc2)N1C` (centres undefined), the activity change, negative = inhibition is reported as inactive: -1.72%.
In the case of `Cc1cc(SC(NC=O)C(Cl)(Cl)Cl)ncn1` (centres undefined), the activity change, negative = inhibition is reported as inactive: 7.32%.
`O=P(Nc1ccccn1)(c1cccc2ccccc12)c1cccc2ccccc12` was tested, and the activity change, negative = inhibition was inactive: -5.14%.
In the case of `O=[N+]([O-])c1ccc(Nc2ccc(Oc3ccc([N+](=O)[O-])cc3[N+](=O)[O-])cc2)c([N+](=O)[O-])c1`, the activity change, negative = inhibition is reported as inactive: -1.07%.
In the case of `CCOC(=O)Nc1cccc([As](=O)(O)O)c1`, the activity change, negative = inhibition is reported as inactive: -0.731%.
For `CCCCOc1ccc(C(=O)NCC2(N3CCCCC3)CCCCC2)cc1OC`, the activity change, negative = inhibition was inactive: 8.42%.
`Cc1cc(SC(NC(=O)c2ccccc2)C(Cl)(Cl)Cl)nc(C(C)C)n1` (centres undefined) was tested, and the activity change, negative = inhibition was inactive: -0.568%.
`CCOC(=O)Nc1ccc([As](=O)(O)O)c(O)c1` was tested, and the activity change, negative = inhibition was inactive: -5.02%.

From PubChem BioAssay AID2662 (National Center for Advancing Translational Sciences (NCATS), 2010)
